Values joined by “and” are separate entries in the source; they are usually repeats but may differ in a detail not shown here. Equal values may be shown once. Read-outs that look alike come from different tables or passages of the source.

Amino acid sequences for entries named in this document (tags omitted).
UniProt Q13547, whole entry: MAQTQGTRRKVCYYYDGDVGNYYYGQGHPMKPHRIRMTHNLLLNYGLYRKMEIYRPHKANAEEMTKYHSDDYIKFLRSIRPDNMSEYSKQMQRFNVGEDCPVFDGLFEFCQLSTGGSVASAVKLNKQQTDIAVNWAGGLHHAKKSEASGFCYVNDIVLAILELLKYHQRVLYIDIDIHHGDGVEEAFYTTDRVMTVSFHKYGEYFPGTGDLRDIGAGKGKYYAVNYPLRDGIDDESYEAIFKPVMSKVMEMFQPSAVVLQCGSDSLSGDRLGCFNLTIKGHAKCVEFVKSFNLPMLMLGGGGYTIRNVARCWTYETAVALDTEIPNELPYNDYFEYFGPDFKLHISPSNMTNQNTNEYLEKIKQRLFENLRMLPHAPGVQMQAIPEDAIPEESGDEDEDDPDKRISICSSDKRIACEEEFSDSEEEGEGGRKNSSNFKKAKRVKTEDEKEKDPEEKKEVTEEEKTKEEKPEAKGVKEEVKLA

This experiment addresses T1, human HDAC1 (Homo sapiens, UniProt Q13547).
T1 construct: made in house
In words: Inhibition activity test of histone deacetylase 1 (fluorescence, Ac-Lys-Tyr-Lys(Ac)-AMC substrate). It is filed as biochemical.

The mark [1] stands for this setting: mean of 3 experiments, read-out: IC50 HDAC1.

As usually defined, the IC50 is the concentration that inhibits the measured activity by half. Turning to `C[C@H](NC(=O)c1nc(-c2ncc(-c3ccccc3)s2)sc1C1CC1)c1ccc(C(=O)NO)cc1` [Compound H08], the IC50 under setting [1] is 2 to 3 nM and 2.53 nM.

`C[C@@H](NC(=O)c1nc(-c2ncc(-c3ccccc3)s2)sc1C1CC1)c1ccc(C(=O)NO)cc1` [Compound H11]: the IC50 under setting [1] is 43 ± 10.3 nM.

`O=C(CCNC(=O)c1nc(-c2nccs2)sc1C1CC1)NO` [bexanostat]: the IC50 (IC50 HDAC1, mean of 3 experiments) amounted to 95.1 ± 48.5 nM.

The values above are taken from US10766889B2, “Aryl-2,2′-tandem bisthiazole compound and preparation method and use thereof” (SHANGHAI INSTITUTE OF MATERIA MEDICA, CHINESE ACADEMY OF …, priority 2016, dated 2020).
